In patent US9745348B2 (The University of Manchester, priority 2011, dated 2017):

System: fibroblasts Adult (HDFa) cells
Experiment: MTT viability of fibroblasts over three days
Assay type: cell-based, human
Conditions: surfactant 1%
Method: MTT assay: Cell viability and proliferation is widely assessed by the MTT assay as already described previously.
The fibroblasts cells, Neonatal (HDFn) and Adult (HDFa), were both grown until greater than 80% confluent. […] After 24 hour incubation the culture medium was replaced with fresh medium containing an appropriate amount of the peptide for investigation.
The viability of the fibroblasts, Adult (HDFa) and Neonatal (HDFn) cells in the presence of surfactants was tested by MTT assay over three days relative to control wells containing cells only.

## cocamidopropyl aetaine [Tt]
Day 1
  MTT results (relative MTT reading): 0.01
Day 2
  MTT results (relative MTT reading): 0.00
Day 3
  MTT results (relative MTT reading): 0.00
